Source: PubChem
An excerpt weighted towards active compounds, which were near 0.43% of everything screened.
GIV-Gai inh = inhibitors of GIV peptide binding to Galpha-i3, primary screen, biochemical, fluorescence polarization, FITC-GIV GBA peptide, rat Galphai3; Guanine nucleotide-binding protein G(i) subunit alpha-3 (Rattus norvegicus), P08753; 0.42% of 210,000 active; percent of control (FP), % (concentration not given with the values); 90 min; stronger effect = lower value; scaled: aluminum fluoride 0%, vehicle 100%;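 active = replicate mean at 85% of control or lower, very high polarization wells dropped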;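 note: wells of about 15 µL received 100 nL stock; the first replicate is given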
HCMV NEC inh = inhibitors of HCMV UL50-UL53 interaction, biochemical, HTRF; HCMV UL50-UL53 nuclear egress complex (human cytomegalovirus); hit rate 0.15% among 190,000; inhibition, % (no concentration beside the values); normalized percent inhibition; in the data active means inhibition above about 27%, passing the limit was not always enough
Of the large screens only hits and unclear results are named; the others gave an inactive call.

Sequences of proteins named here, by UniProt entry; tags and fusion partners are left off.
Guanine nucleotide-binding protein G(i) subunit alpha-3 (Rattus norvegicus), P08753, UniProt P08753, whole entry, looked up: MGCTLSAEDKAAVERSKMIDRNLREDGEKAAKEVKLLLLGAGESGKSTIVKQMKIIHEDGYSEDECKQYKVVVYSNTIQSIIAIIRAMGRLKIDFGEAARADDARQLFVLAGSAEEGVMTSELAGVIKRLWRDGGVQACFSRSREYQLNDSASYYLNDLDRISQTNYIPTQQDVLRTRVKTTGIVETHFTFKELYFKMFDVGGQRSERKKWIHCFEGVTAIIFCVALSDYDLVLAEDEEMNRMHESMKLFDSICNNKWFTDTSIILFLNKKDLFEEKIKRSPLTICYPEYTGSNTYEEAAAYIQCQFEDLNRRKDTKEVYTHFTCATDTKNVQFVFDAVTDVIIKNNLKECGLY

Cc1ccc(S(=O)(=O)Nc2nc3n(n2)C(c2ccc(Cl)cc2)C=C(c2ccc(Cl)cc2)N3)cc1 (configuration not stated)	none
Cc1ccc(C2C=C(c3ccc(Cl)cc3)Nc3nc(NC(=O)c4ccco4)nn32)cc1 (configuration not stated)	GIV-Gai inh 33
O=C(Nc1nc2n(n1)C(c1ccc(F)cc1)C=C(c1ccccc1)N2)c1ccc(Cl)cc1 (configuration not stated)	none
COc1ccc(C(=O)Nc2nc3n(n2)C(c2ccc(F)cc2)C=C(c2ccc(Cl)cc2)N3)cc1 (configuration not stated)	GIV-Gai inh -66
COc1ccccc1C(=O)Nc1nc2n(n1)C(c1ccc(F)cc1)C=C(c1ccc(Cl)cc1)N2 (configuration not stated)	none
COc1ccc(-n2nnnc2C2CCN(S(=O)(=O)c3cccc(Br)c3)CC2)cc1	none
N#Cc1nc2c(C#N)c3ccc4ccccc4n3c2nc1C#N	none (no result: GIV-Gai inh)
Cc1csc(SCc2cc(=O)c(OC(=O)c3ccc(S(=O)(=O)N4CCOCC4)cc3)co2)n1	none
Cc1nn(-c2ccccc2)cc1-c1noc(C(=O)NC2CCCCC2)n1	none
O=C(c1cccc(-n2cnnn2)c1)N(CCc1ccccc1)Cc1cccs1	none (no result: GIV-Gai inh)
Cc1ccc(NC(=O)CSc2nc3c(oc4ccccc43)c(=O)n2Cc2ccc(F)cc2)c(C)c1	none (no result: HCMV NEC inh)
CCN(CC)CCn1c(SCC(=O)Nc2cccc(OC)c2)nc2c(sc3ccccc32)c1=O	none (no result: HCMV NEC inh)
COc1cccc(NC(=O)CSc2nc3c(sc4ncccc43)c(=O)n2Cc2ccc(C)cc2)c1	HCMV NEC inh 79
COc1ccc(C)cc1NC(=O)CSc1nc2c(sc3ncccc32)c(=O)n1Cc1ccc(F)cc1	HCMV NEC inh 55
Cc1nc2cc(-c3noc(-c4cncc(Br)c4)n3)ccc2o1	none (no result: HCMV NEC inh)
CCc1ccc2[nH]c(=O)c(CNCCO)cc2c1	none
Clc1ccc(CSc2nc3ccccc3n3nnnc23)cc1	none (no result: HCMV NEC inh)
CCOC(=O)CC1COc2cc(F)ccc2N1 (configuration not stated)	none
C=CC(=O)Nc1ccc(-c2nc3ccc(NC(=O)C=C)cc3[nH]2)cc1	HCMV NEC inh 54
CC(C)(C)C(=O)Nc1ccc(-c2nc3ccc(NC(=O)C(C)(C)C)cc3[nH]2)cc1	none
CN(C)c1ccc(/C=C2\N=C(c3ccc(Br)o3)OC2=O)cc1	GIV-Gai inh -56
CN(C)c1ccc(/C=C2/N=C(c3cccs3)OC2=O)cc1	none (no result: GIV-Gai inh)
Cc1ccc(-n2nc3c(c2NC(=O)c2ccc(C(=O)c4ccccc4)cc2)CS(=O)(=O)C3)c(C)c1	none (no result: HCMV NEC inh)
CSc1nc(CN2CCN(S(=O)(=O)Cc3ccccc3)CC2)cc(=O)[nH]1	none (no result: GIV-Gai inh)
COc1ccc(/C=C2\SC(=S)N(CCC(=O)Nc3ccc(C)cc3)C2=O)cc1OC	none (no result: GIV-Gai inh)
NC(=O)CSc1n[nH]c(COc2ccc(Cl)cc2)n1	none (no result: GIV-Gai inh)
N#C/C(=C\c1ccc(N2CCCC2)o1)c1ccccc1	GIV-Gai inh -49
N#C/C(=C\c1ccc(-c2ccccc2)o1)c1ccccc1	none
COCCN1C(=O)/C(=C/c2cc(OC)c(O)cc2Br)SC1=S	GIV-Gai inh -61
COc1cc(OC)c(OC)cc1/C=C1/SC(=S)N(CC(=O)O)C1=O	none
Cc1ccc2c(c1)Oc1ccc(S(=O)(=O)N3CCC(C)CC3)cc1C(=O)N2	none (no result: HCMV NEC inh)
CCCN1CC(CSC)C[C@@H]2c3cccc4[nH]cc(c34)C[C@H]21 (some centres not stated)	HCMV NEC inh 50 (no result: GIV-Gai inh)
CC(=O)Nc1ccc2c(c1)CN(Cc1ccc(Cl)cc1)CO2	none (no result: HCMV NEC inh)
C=CCOC(=O)C1=C(C)NC(SCC(=O)Nc2c(C)cc(C)cc2C)=C(C#N)C1c1cccs1 (configuration not stated)	none (no result: HCMV NEC inh)
CC1=CC(=C2C(=O)NC(=O)NC2=O)C=C(C)N1c1ccccc1	GIV-Gai inh -4.9
CC1=CC(=C2C(=O)NC(=S)NC2=O)C=C(C)N1CCc1ccccc1	none
CC(C)c1ccc(C2C(C#N)=C(N)SC(N)=C2C#N)cc1	none (no result: GIV-Gai inh)
N#CC1=C(N)SC(N)=C(C#N)C1c1ccc(O)cc1	GIV-Gai inh -74
N#CC1=C(N)SC(N)=C(C#N)C1c1cccs1	GIV-Gai inh -54
CCOC(=O)C1=C(C)OC(N)=C(C#N)C1c1cccc(C(F)(F)F)c1 (configuration not stated)	none (no result: HCMV NEC inh)
CC(=O)C1=C(C)OC(N)=C(C#N)C1c1cccs1 (configuration not stated)	none (no result: HCMV NEC inh)
N#CC1=C(N)SC(N)=C(C#N)C1c1cccc(C(F)(F)F)c1	GIV-Gai inh -83
COC(=O)Cc1[nH]n(-c2ccccc2)c(=O)c1C(C)=NCc1cccnc1	none
O=C1N/C(=N\c2ccccn2)SC1Cc1ccc(Br)cc1 (configuration not stated)	none
COc1cccc(Cn2ccn(Cc3ccccc3)c(=O)c2=O)c1	none
CCCC(=O)Nc1cccn(Cc2cccc(OC)c2)c1=O	HCMV NEC inh 50
Cc1[nH]cnc1CN1CCCCCCC1	none
Cc1[nH]cnc1CN1CCc2c(c3ccccc3n2C)C1=O	HCMV NEC inh 90 (no result: GIV-Gai inh)
CC(C)CNC(=O)c1ccc2c(=O)n(-c3ccc(F)cc3)c(SCC(=O)c3c[nH]c4ccccc34)nc2c1	none
COc1cc2c(cc1OC)NC(=O)C2	HCMV NEC inh 64
COc1cc2c(cc1OC)C(c1ccccc1)CC(=O)N2 (configuration not stated)	none
Cc1sc2ncc(C(=O)N3CCN(c4ccccc4F)CC3)c(=O)n2c1C	none
COc1cc(OC)cc(N2C(=O)CN(S(C)(=O)=O)CC2(C)C(=O)NC2CCCC2)c1 (configuration not stated)	none
COc1cc(/C=C2\Cc3ccccc3C2=O)ccc1O	none
CN1CCCc2cc(/C=C3\Cc4ccccc4C3=O)ccc21	GIV-Gai inh -75 (no result: HCMV NEC inh)
CCN1CCN(c2ncnc3c2c(-c2ccccc2)cn3-c2ccc(Br)cc2)CC1	none (no result: HCMV NEC inh)
COc1cccc2c1N=C1OC=CC1C2OC (configuration not stated)	HCMV NEC inh 54 (no result: GIV-Gai inh)
CCNc1cccc2c1C(=O)N(C)C2=O	GIV-Gai inh 6.2
CN1C(=O)c2cccc(NC(=O)CSc3ccc(F)cc3)c2C1=O	none
O=c1c2ccccc2n2c(-c3ccc(F)c(F)c3)nnc2n1CCc1ccccc1	none
O=c1c2ccccc2n2c(-c3ccc(Cl)cc3)nnc2n1CCc1ccccc1	HCMV NEC inh 59
COc1cc(C=C2C(=O)NC(=S)NC2=O)cc(Cl)c1OCCOc1cccc(C)c1	none
COc1cc(C=C2C(=O)N(C)C(=O)N(C)C2=O)cc(Br)c1OCCOc1ccccc1	none
COc1ccccc1OCCOc1c(Br)cc(C=C2C(=O)N(C)C(=O)N(C)C2=O)cc1OC	HCMV NEC inh 77
COc1cc(C=C2C(=O)NC(=O)NC2=O)cc(Br)c1OCCOc1ccccc1	HCMV NEC inh 82
CCOc1cc(C=C2C(=O)NC(=O)NC2=O)cc(Br)c1OCCOc1ccccc1	none
COc1cc(C=C2C(=O)NC(=O)NC2=O)cc(Cl)c1OS(=O)(=O)c1ccccc1	HCMV NEC inh 60
Cc1cc(C)c(C)c(S(=O)(=O)Nc2ccc(-c3nnc(-c4ccccc4)o3)cc2)c1	none (no result: HCMV NEC inh)
COc1ccc2nc(NC(=O)CNC(=O)Cn3cnc4sc5c(c4c3=O)CCCC5)sc2c1	none (no result: HCMV NEC inh)
CCC1(C)OC(=O)N(CCc2c(C)[nH]c3ccccc23)C1(C)O (configuration not stated)	none (no result: GIV-Gai inh)
O=C(NCCS(=O)(=O)N1CCN(c2ccccc2F)CC1)C1c2ccccc2Oc2ccccc21	none
CCn1c(=O)c2c(C(=O)NCCN3CCOCC3)cc(=O)n(CC)c2n(C)c1=O	none
COCCn1c(SCc2nc(-c3ccccc3)no2)nc2cc3c(cc2c1=O)OCO3	none (no result: HCMV NEC inh)
